A value given as a limit tells only on which side of the number the result lay.

Amino acid sequences for entries named in this document (tags omitted).
UniProt P51532, whole entry: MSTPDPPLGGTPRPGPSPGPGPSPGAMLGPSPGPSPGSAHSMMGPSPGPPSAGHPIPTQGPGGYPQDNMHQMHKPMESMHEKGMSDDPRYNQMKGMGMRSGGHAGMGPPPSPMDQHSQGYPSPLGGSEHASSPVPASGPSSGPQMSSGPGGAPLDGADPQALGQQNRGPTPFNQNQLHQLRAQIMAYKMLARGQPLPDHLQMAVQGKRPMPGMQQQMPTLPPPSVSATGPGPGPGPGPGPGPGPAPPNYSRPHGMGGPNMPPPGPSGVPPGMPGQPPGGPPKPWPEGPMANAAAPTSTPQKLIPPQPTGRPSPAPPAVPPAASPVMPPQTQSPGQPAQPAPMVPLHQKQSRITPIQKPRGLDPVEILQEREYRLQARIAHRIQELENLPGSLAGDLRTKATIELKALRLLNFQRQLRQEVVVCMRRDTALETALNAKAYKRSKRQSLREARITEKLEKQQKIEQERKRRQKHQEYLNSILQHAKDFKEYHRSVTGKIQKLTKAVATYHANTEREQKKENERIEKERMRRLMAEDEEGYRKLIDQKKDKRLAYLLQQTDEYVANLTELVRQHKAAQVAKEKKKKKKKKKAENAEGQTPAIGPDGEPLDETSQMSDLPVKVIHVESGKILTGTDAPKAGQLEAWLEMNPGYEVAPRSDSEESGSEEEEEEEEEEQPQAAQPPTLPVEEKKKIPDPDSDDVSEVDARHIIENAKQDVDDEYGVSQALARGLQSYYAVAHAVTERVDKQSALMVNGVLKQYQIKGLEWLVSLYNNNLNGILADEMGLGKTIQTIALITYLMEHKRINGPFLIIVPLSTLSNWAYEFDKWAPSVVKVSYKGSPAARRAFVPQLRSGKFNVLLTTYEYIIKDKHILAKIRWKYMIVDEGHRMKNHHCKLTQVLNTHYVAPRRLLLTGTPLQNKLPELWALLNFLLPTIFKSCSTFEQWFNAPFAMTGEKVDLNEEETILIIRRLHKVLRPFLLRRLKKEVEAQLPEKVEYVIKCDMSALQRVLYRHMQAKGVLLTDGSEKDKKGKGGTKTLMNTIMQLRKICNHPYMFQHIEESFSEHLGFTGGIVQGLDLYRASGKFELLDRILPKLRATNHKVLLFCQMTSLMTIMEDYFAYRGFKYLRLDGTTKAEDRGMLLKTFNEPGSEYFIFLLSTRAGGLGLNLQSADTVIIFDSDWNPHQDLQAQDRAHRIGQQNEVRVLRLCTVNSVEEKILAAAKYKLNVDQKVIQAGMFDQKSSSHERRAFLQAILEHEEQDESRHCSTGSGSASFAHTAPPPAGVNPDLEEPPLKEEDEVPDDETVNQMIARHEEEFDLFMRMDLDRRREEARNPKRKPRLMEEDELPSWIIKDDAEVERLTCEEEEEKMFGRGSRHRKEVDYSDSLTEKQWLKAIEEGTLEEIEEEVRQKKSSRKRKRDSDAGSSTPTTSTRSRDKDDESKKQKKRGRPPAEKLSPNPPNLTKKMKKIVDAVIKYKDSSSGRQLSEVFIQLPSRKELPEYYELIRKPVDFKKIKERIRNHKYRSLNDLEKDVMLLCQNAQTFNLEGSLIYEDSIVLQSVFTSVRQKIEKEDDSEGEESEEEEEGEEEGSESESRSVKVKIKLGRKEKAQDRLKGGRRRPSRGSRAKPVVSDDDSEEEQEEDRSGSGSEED
UniProt P51531, whole entry: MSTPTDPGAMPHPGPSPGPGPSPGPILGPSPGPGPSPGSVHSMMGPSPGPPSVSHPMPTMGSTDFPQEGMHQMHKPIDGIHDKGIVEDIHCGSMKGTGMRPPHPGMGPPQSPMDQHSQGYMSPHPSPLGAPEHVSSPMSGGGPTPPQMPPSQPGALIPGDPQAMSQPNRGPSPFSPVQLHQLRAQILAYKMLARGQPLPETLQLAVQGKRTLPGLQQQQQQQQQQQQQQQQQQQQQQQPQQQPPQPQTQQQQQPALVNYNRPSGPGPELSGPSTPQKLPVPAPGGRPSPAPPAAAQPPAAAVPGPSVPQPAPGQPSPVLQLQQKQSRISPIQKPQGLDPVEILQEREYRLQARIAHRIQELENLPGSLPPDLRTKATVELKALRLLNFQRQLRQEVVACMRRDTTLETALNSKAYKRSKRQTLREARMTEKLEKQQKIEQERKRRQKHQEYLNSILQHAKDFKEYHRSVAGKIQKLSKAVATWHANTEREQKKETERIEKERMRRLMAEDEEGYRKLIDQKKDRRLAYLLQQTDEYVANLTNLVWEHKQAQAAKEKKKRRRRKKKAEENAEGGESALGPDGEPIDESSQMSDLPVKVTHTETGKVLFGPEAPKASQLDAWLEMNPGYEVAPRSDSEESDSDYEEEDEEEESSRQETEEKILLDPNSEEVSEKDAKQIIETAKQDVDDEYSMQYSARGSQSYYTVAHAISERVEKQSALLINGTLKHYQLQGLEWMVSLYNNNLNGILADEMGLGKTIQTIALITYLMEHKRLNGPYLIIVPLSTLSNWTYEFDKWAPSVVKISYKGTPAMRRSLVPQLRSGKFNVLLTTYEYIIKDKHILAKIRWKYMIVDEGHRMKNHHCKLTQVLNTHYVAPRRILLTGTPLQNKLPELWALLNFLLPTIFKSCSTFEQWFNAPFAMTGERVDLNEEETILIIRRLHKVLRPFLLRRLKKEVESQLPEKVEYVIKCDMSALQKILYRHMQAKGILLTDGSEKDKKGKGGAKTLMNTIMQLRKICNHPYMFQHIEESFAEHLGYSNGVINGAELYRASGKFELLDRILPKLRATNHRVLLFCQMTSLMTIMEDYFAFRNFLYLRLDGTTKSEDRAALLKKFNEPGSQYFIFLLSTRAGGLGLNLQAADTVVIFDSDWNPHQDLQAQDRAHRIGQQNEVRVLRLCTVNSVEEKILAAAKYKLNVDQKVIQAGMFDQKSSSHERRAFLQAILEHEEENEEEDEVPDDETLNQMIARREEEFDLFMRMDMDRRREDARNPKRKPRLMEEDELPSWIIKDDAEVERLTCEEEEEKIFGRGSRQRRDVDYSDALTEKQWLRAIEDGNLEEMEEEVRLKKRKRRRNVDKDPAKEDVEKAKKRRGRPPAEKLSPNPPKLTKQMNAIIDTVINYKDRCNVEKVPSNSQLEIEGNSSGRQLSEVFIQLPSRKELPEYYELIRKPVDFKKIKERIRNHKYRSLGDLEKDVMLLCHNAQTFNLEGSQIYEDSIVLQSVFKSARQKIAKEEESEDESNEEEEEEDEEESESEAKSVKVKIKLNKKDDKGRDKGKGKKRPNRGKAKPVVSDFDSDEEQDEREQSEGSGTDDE

The text below walks through data of patent publication US20230150974A1 (Foghorn Therapeutics Inc., priority 2020, published 2023).

The target of assay [1] is T1, HiBit-BRG1 (Homo sapiens, UniProt P51532).
T1 construct: expressed in transfected cells
Nature of the assay: HiBit-BRG1 cell-based degradation assay (Nano-Glo HiBiT Lytic Detection). The settings on record: HeLa, 24 h, read-out: BRG1 HiBit Degradation Maximum (%). The protocol:
(§1) Procedure: A stable HeLa cell line expressing HiBiT-BRM was generated. On day 0, 5000 cells were seeded in 40 μL of media into each well of 384-well cell culture plates. […] Subsequently plates were incubated for 24 h in a standard tissue culture incubator and equilibrated at room temperature for 15 minutes. Nano-Glo HiBiT Lytic Detection System (Promega N3050) reagent was freshly prepared and 20 ul was added to each well. Upon addition of this LgBit-containing reagent, the HiBiT and LgBiT proteins associate to form the luminescent NanoBiT luciferase. The plates were shaken for 10 minutes at room temperature and the bioluminescence read using an EnVision plate reader (PerkinElmer).
For measurement of BRG1 degradation, a stable HeLa cell line expressing HiBit-BRG1 and LgBit was generated. The same protocol as above was then followed.
(§2) The degradation % was calculated using the following formula: % degradation=100%−100%×(LumSample−LumLC)/(LumHC−LumLC). DMSO treated cells are employed as High Control (HC) and 2 μM of a known BRM/BRG1 degrader standard treated cells are employed as Low Control (LC).
On the technique in general: With HiBiT, luminescence reflects the tagged protein that the partner subunit can reach.

Assay [2] addresses T2, HiBiT-BRM (Homo sapiens, UniProt P51531).
T2 construct: expressed in transfected cells
The experiment in a line: HiBiT-BRM cell-based degradation assay (Nano-Glo HiBiT Lytic Detection). Particulars: HeLa cells expressing HiBiT-BRM, 24 h. The protocol: as §1, §2

For `Nc1nnc(-c2ccccc2O)cc1OCCc1ccc(CNC(=O)CCCCOc2ccc3c(c2)CN(C2CCC(=O)NC2=O)C3=O)cc1` (stereo not drawn) [Compound 129, N-(4-(2-((3-amino-6-(2-hydroxyphenyl)pyridazin-4-yl)oxy)ethyl)benzyl)-5-((2-(2,6-dioxopiperidin-3-yl)-1-oxoisoindolin-5-yl)oxy)pentanamide], the Dmax in assay [1] was below 50%.

Take `Nc1nnc(-c2ccccc2O)cc1OCCc1ccc(CNC(=O)CCCCOc2ccc3c(c2)C(=O)N(C2CCC(=O)NC2=O)C3)cc1` (stereo not drawn) [Compound 128, N-(4-(2-((3-amino-6-(2-hydroxyphenyl)pyridazin-4-yl)oxy)ethyl)benzyl)-5-((2-(2,6-dioxopiperidin-3-yl)-3-oxoisoindolin-5-yl)oxy)pentanamide]: in assay [1], the Dmax was below 50%.

For the compound `Nc1nnc(-c2ccccc2O)cc1OCCc1ccc(CNC(=O)NCCCOc2cccc3c2C(=O)N(C2CCC(=O)NC2=O)C3=O)cc1` (stereo not drawn) [Compound 8, 1-(4-(2-((3-amino-6-(2-hydroxyphenyl)pyridazin-4-yl)oxy)ethyl)benzyl)-3-(3-((2-(2,6-dioxopiperidin-3-yl)-1,3-dioxoisoindolin-4-yl)oxy)propyl)urea], in assay [1], the Dmax was below 50%.

With `Nc1nnc(-c2ccccc2O)cc1N1CCN(C(=O)C2CC2CNC(=O)COc2ccc3c(c2)C(=O)N(C2CCC(=O)NC2=O)C3=O)CC1` (stereo not drawn) [Compound 78, N-[(2-[4-[3-amino-6-(2-hydroxyphenyl)pyridazin-4-yl]piperazine-1-carbonyl]cyclopropyl)methyl]-2-[[2-(2,6-dioxopiperidin-3-yl)-1,3-dioxoisoindol-5-yl]oxy]acetamide], the Dmax in assay [1] was below 50%.

For `Nc1nnc(-c2ccccc2O)cc1N1CCN(C(=O)C2CC2CNC(=O)COc2cccc3c2C(=O)N(C2CCC(=O)NC2=O)C3=O)CC1` (stereo not drawn) [Compound 77, N-[(2-[4-[3-amino-6-(2-hydroxyphenyl)pyridazin-4-yl]piperazine-1-carbonyl]cyclopropyl)methyl]-2-[[2-(2,6-dioxopiperidin-3-yl)-1,3-dioxoisoindol-4-yl]oxy]acetamide], in assay [1], the Dmax is below 50%.

Regarding `Nc1nnc(-c2ccccc2O)cc1OCCc1ccc(CNC(=O)CCCCOc2ccc3c(c2)C(=O)N(C2CCC(=O)NC2=O)C3=O)cc1` (stereo not drawn) [Compound 5, N-(4-(2-((3-amino-6-(2-hydroxyphenyl)pyridazin-4-yl)oxy)ethyl)benzyl)-5-((2-(2,6-dioxopiperidin-3-yl)-1,3-dioxoisoindolin-5-yl)oxy)pentanamide], the Dmax in assay [1] is below 50%.

For the compound `Nc1nnc(-c2ccccc2O)cc1OCCc1ccc(CNC(=O)CCCCNc2cccc3c2C(=O)N(C2CCC(=O)NC2=O)C3=O)cc1` (stereo not drawn) [Compound 4, N-[[4-(2-[[3-amino-6-(2-hydroxyphenyl)pyridazin-4-yl]oxy]ethyl)phenyl]methyl]-5-[[2-(2,6-dioxopiperidin-3-yl)-1,3-dioxoisoindol-4-yl]amino]pentanamide], the Dmax in assay [1] is below 50%.

On to `Nc1nnc(-c2ccccc2O)cc1OCCc1ccc(CNC(=O)CCCCNc2cccc3nnn(C4CCC(=O)NC4=O)c(=O)c23)cc1` (stereo not drawn) [Compound 1, N-(4-(2-((3-amino-6-(2-hydroxyphenyl)pyridazin-4-yl)oxy)ethyl)benzyl)-5-((3-(2,6-dioxopiperidin-3-yl)-4-oxo-3,4-dihydrobenzo[d][1,2,3]triazin-5-yl)amino)pentanamide], for which the “BRM HiBit Degradation Maximum (%)” value in assay [2] is on record as “B (“B” indicates maximum degradation ≥50%)”. Besides, the Dmax in assay [1] was below 50%.

Consider `Nc1nnc(-c2ccccc2O)cc1OCCc1ccc(CNC(=O)CCCCNc2cccc3c2CN(C2CCC(=O)NC2=O)C3=O)cc1` (stereo not drawn) [Compound 2, N-(4-(2-((3-amino-6-(2-hydroxyphenyl)pyridazin-4-yl)oxy)ethyl)benzyl)-5-((2-(2,6-dioxopiperidin-3-yl)-1-oxoisoindolin-4-yl)amino)pentanamide], for which, in assay [1], the Dmax is below 50%.

Turning to `Nc1nnc(-c2ccccc2O)cc1OCCc1ccc(CNC(=O)CCCCCCCCCNc2ccc3c(c2)C(=O)N(C2CCC(=O)NC2=O)C3=O)cc1` (stereo not drawn) [Compound 75, N-(4-(2-((3-amino-6-(2-hydroxyphenyl)pyridazin-4-yl)oxy)ethyl)benzyl)-10-((2-(2,6-dioxopiperidin-3-yl)-1,3-dioxoisoindolin-5-yl)amino)decanamide], in assay [1], the Dmax is below 50%.

On to `Nc1nnc(-c2ccccc2O)cc1OCCc1ccc(CNCCCCCOc2cccc3c2C(=O)N(C2CCC(=O)NC2=O)C3=O)cc1` (stereo not drawn) [Compound 9, 4-[[5-([[4-(2-[[3-amino-6-(2-hydroxyphenyl)pyridazin-4-yl]oxy]ethyl)phenyl]methyl]amino)pentyl]oxy]-2-(2,6-dioxopiperidin-3-yl)isoindole-1,3-dione], for which, in assay [1], the Dmax is below 50%.
